Source: patent US5130450A, “Platinum complexes” (Nippon Kayaku Kabushiki Kaisha, priority 1990, dated 1992)

Solubility in water, > 5000 µg/mL:
CC(C)(CO)C(=O)[O-].CC(C)(CO)C(=O)[O-].NCC1(N)CCCCC1.[Pt+2] [compound No. 14, cis-Bis(3-hydroxy-2,2-dimethylpropionato)-1-amino-1-aminomethylcyclohexane platinum (II)]
CC(C)(CO)C(=O)[O-].CC(C)(CO)C(=O)[O-].N.N.[Pt+2] [compound No. 11, cis-Bis(3-hydroxy-2,2-dimethylpropionato)-diammine platinum (II)]
cis-Bis(1-hydroxy-cyclobutane-1-carboxylato)-diammine platinum (II) [compound No. 3]
cis-Bis(2-hydroxy-3,3-dimethylbutyrato)trans-1,2-diaminocyclohexane platinum (II) [compound No. 6]
